# Patent US6946076B2, “Removal of phosphate from water” (Dudley Mills Pty Ltd., priority 2001, dated 2005)
compound,measurement,value
O=C([O-])CO.O=C([O-])CO.O=C([O-])CO.[La+3] [lanthanum glycolate],lanthanum of the second dose remaining unreacted,about 40%
